{"sequences": {"note": "Protein sequences, listed by entry. Tags and fused reporters are not part of them.", "UniProt O35433, whole entry": "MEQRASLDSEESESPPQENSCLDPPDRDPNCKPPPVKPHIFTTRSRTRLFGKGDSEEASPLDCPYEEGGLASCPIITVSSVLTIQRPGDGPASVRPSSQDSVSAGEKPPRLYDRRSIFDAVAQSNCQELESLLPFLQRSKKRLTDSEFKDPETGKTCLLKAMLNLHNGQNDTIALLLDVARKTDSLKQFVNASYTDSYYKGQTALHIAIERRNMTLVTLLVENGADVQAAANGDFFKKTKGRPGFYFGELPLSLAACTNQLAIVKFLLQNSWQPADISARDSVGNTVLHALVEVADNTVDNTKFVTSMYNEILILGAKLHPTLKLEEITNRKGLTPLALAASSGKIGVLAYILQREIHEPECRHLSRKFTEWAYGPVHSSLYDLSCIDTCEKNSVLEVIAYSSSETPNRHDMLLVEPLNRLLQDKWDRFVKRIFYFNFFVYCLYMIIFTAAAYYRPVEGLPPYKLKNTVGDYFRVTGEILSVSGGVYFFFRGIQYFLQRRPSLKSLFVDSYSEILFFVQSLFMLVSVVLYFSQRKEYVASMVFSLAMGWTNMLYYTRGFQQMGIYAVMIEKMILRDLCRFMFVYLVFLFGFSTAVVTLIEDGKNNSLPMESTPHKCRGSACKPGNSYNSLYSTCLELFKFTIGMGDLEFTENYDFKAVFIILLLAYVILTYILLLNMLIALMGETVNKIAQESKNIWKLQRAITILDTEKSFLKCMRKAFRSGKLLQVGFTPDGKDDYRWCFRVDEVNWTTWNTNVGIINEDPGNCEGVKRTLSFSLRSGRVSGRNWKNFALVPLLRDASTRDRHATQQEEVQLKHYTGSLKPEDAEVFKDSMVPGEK"}, "source": "patent US20210290524A1", "about": "“TOPICAL TRPV1 ANTAGONISTS AND METHODS AND COMPOSITIONS THEREOF” (CHILDREN'S MEDICAL CENTER CORPORATION, priority 2016, published 2021)", "target": "rTRPV1 (Rattus norvegicus, UniProt O35433)", "settings": "concentration response with capsaicin; HEK rTRPV1", "data": [{"smiles": "NC(=O)CC[C@H](N)C(=O)N[C@@H](CCCN=C(N)N)C(=O)N[C@@H](Cc1ccccc1)C(=O)N[C@@H](CO)C(=O)N[C@@H](CCCN=C(N)N)C(=O)O", "note": "[opiorphin]", "values": [{"measurement": "concentration at which activity was seen", "value": 10, "unit": "nM"}]}]}
